{"sequences": {"note": "Chains of the proteins cited; added tags and fusions are not shown.", "UniProt Q9UDY8, whole entry": "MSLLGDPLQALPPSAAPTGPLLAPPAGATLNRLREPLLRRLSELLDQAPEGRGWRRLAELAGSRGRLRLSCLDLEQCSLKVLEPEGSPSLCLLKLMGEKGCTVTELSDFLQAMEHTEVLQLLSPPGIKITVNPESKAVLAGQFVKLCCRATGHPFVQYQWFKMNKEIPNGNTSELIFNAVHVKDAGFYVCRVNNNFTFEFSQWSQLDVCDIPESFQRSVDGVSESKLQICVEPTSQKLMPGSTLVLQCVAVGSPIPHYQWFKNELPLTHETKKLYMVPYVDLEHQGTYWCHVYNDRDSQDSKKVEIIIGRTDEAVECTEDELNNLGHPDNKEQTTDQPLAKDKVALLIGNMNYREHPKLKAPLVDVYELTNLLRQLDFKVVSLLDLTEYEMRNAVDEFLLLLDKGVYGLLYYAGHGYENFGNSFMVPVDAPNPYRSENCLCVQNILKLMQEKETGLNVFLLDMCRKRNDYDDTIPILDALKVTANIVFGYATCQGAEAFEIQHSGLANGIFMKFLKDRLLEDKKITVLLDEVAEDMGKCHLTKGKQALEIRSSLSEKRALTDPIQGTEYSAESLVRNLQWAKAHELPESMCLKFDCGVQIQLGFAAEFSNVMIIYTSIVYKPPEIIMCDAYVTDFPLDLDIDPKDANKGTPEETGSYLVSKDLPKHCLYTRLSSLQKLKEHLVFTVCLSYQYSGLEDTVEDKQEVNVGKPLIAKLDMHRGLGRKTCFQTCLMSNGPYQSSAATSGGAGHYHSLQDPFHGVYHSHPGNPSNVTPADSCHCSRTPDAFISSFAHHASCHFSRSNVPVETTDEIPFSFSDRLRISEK"}, "source": "patent US20240150321A1", "about": "“PYRAZOLYLSULFONAMIDE COMPOUNDS AND THEIR USE IN THERAPY” (HOTSPOT THERAPEUTICS, INC., priority 2022, published 2024)", "key": {"Avi-tagged FL MALT-1": {"molecular_target": "Avi-tagged FL MALT-1 (Homo sapiens (Human), UniProt Q9UDY8)", "assay": "MALT-1 Fluorogenic Peptide Cleavage Assay (MALT1 inhibition assay)", "conditions": "read-out: MALT1 Inhibition IC50; Ac-LRSR-AMC peptide substrate, 30 min pre-incubation, 90 min reaction at room temperature", "procedure": "Inhibition of MALT1 activity by the presence of small molecules was evaluated using MALT-1 Fluorogenic Peptide Cleavage Assay. The assay utilizes a quenched AMC-labelled peptide that contains the MALT-1 recognition sequence and cleavage site (LRSR). MALT-1 mediated cleavage of the peptide relieves the quenching and leads to an increase in fluorescence at excitation (342 nm) and emission (441 nm). […]\nCompounds were plated to provide a 2% DMSO final concentration using a ProxiPlate-384 Plus F Black 384-shallow well microplate. The assay-ready plates were equilibrated to room temperature. […]\nFluorescence intensity was determined using a CLARIOstar microplate reader (BMG LABTECH) using the optimised AMC mode. Before taking readings, a 70% gain was applied on the neutral control well. […]"}, "[1]": {"tested_on": "NF-kB reporter in Jurkat cells", "assay": "NF-kB reporter assay in Jurkat cells stimulated with aCD3/aCD28/PMA", "format": "cell-based", "conditions": "read-out: NF-kB Reporter Assay IC50, 1 hr compound pre-incubation, aCD3/aCD28/PMA stimulation 4 hr, One-Glo readout", "procedure": "Jurkat cells were maintained in complete RPMI 1640 media supplemented with 10% FBS. Prior to the assay, 120 nL of the serial diluted compound was added in each well of 384-well flat bottom white plate (Corning #3570) by using liquid handler Echo550. Jurkat cells were harvested by centrifugation at 120 g for 10 min and resuspended in fresh RPMI 1640 media without serum. […] (25,000 cells) were seeded in each well of 384-well plate containing compound. After 1 hr incubation at 37° C. in a 5% CO2 incubator, […] of diluted aCD3/aCD28/PMA (final concentration at […] and […], respectively) in RPMI 1640 without serum were added to each well. After incubation at 37° C. in 5% CO2 for 4 hr, […] of One-Glo reagent (Promega #E6120) was added into each well. The plate was left at room temperature for 5 min and the signal was measured on EnVision (PerkinElmer).\nCompounds in which an IC50 was not measured are designated as “N/A”."}}, "data": [{"smiles": "COc1ccc2cnn(C)c2c1NS(=O)(=O)c1cnn(-c2cc(C(C)OC)ccn2)c1", "note": "(single isomer, unassigned) [Compound I-291, N-(6-methoxy-1-methyl-1H-indazol-7-yl)-1-(4-(1-methoxyethyl)pyridin-2-yl)-1H-pyrazole-4-sulfonamide]", "values": [{"measurement": "IC50", "setting": "Avi-tagged FL MALT-1", "value": "> 2500", "unit": "nM"}, {"measurement": "IC50", "setting": "[1]", "value": "< 400", "unit": "nM"}]}]}
